Experimental data as given in PMC4390550 (Journal of the American Chemical Society, 2015).

By UniProt entry, the sequences of proteins in these tests, tags left out. Residues count along the entry.
UniProt P80147, 29-500: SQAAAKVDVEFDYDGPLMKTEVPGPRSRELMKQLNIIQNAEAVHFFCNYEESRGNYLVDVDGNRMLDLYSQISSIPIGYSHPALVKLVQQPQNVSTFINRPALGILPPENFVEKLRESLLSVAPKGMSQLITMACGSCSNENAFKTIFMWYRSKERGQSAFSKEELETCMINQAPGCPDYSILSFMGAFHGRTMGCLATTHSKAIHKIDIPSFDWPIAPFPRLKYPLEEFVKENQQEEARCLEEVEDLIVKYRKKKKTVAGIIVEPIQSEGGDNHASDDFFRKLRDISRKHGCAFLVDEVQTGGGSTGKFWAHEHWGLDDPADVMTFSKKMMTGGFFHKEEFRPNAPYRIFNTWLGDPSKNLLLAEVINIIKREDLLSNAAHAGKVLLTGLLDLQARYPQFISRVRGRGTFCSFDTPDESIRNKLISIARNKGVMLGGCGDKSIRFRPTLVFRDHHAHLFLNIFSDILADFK

Biological target: GABA-AT (Sus scrofa, UniProt P80147)
Experiment: Time-dependent inhibition
Type: biochemical, pig
Conditions: pH 6.5, 25 °C

Structure (SMILES): Cl.N[C@@H]1CS[C@H](C(=O)O)C1 [Compound 17, (2S,4S)-4-Aminotetrahydrothiophene-2-carboxylic acid hydrochloride]
- efficiency as inactivator of GABA-AT relative to vigabatrin (from kinact/KI): eight times more efficient

Structure (SMILES): Cl.N[C@@H]1CS[C@@H](C(=O)O)C1 [Compound 18, (2R,4S)-4-Aminotetrahydrothiophene-2-carboxylic acid hydrochloride]
- efficiency as inactivator of GABA-AT relative to vigabatrin (from kinact/KI): half as efficient
